## Measured affinities in a library of Ab-91 heavy chain variants

Target: peptide PDVDLGDISGINAS, taken from heptad repeat 2 (HR2) of SARS-CoV-2 spike.

The variants keep the light chain, the linker and the frameworks of Ab-91 (scFv order VL, a 15-residue (Gly4Ser)3 linker, VH).
VL: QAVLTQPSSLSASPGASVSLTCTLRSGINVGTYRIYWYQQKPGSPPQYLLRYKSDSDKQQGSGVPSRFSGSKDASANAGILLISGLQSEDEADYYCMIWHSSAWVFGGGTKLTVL
VH: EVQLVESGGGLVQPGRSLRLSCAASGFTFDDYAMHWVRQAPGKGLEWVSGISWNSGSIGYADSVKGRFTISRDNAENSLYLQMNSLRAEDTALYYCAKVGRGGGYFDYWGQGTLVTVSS

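The parent was found by panning a naive human phage display library on the peptide. AAYL51 was designed without a model: most single CDR substitutions and a random sample of double and triple ones. The scFvs were displayed on barcoded MATa yeast, the peptide on MATalpha yeast. After mating in shaken culture at 30 °C for 16 h, diploids were selected and their barcode pairs sequenced. Each replicate has its own calibration line, from reference interactions of the BCL2 family. There are three technical replicates.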

Variants are written as CDR1, CDR2 and CDR3 of the heavy chain (limits as in the source). Parent: GFTFDDYAMH, GISWNSGSIGYADSVK, VGRGGGYFDY.
Values are log10 of the apparent Kd in nM; lower means stronger binding.
Replicates are averaged; those with no signal do not enter the mean.
A pair that was not seen in that replicate is written "ND"; this usually means weak binding, but a binder can also be missed.
Nonspecific signal, from three strains lacking the peptide, appeared in 21% of pairings of library AAYL51, centred on 4.54 (5% of these signals below 3.26); values are not corrected for it. For each scFv, signals with the empty controls are counted beside the result, with their mean in brackets.

| # | CDR-H1 | CDR-H2 | CDR-H3 | log10 Kd (nM) by replicate | mean, log10 nM | control signals |
|---|---|---|---|---|---|---|
| 1 | GFTFDKYAMH | GISWNSGSIGYADKVK | VGRGPGYFDY | 6.03 6.29 ND | 6.16 | 3 of 9 (4.02) |
| 2 | GFTFDDYAMH | MISWNSGSIGYAKSVK | VGRGGGYFDQ | ND ND ND | ND | 1 of 9 (3.47) |
| 3 | GFTFDDYAMH | GISMNSGSIGYADSVN | VGRGGGYFWY | 5.27 ND ND | 5.27 | 3 of 9 (4.52) |
| 4 | GFTFDDYYMH | GISWNSGSIGYDDSWK | VGRGGGYFDY | ND ND ND | ND | 1 of 9 (3.40) |
| 5 | CFTFDDYAMH | GISWNSGSKGYADSVK | VGRIGGYFDY | ND ND ND | ND | 0 of 9 |
| 6 | GFTFDQYAMH | LISNNSGSIGYADSVK | VGRGGGYFDY | 3.50 ND ND | 3.50 | 0 of 9 |
| 7 | GFTFDDYAMH | GISWNSGSIGQADSVK | VGRGPGYFCY | 3.91 3.22 ND | 3.57 | 4 of 9 (4.84) |
| 8 | RFTFDKYAMH | GYSWNSGSIGYADSVK | VGRGGGYFDY | ND 4.65 ND | 4.65 | 1 of 9 (4.66) |
| 9 | GFTFDDYAMH | GISWNSGSIGYADSVK | VKRGGQYFDY | 2.31 2.66 2.18 | 2.38 | 0 of 9 |
| 10 | GFTFDDYAMH | GISWNSGSIGYFDSVW | FGRGGGYFDY | ND ND ND | ND | 0 of 9 |
| 11 | GFTFDVYAMH | GISWNSGSIGAADSAK | VGRGGGYFDY | 3.96 ND ND | 3.96 | 1 of 9 (2.27) |
| 12 | GFTFDDGAMH | GISWNSGSIQYADSVK | VGRGNGYFDY | 4.44 5.61 ND | 5.03 | 4 of 9 (4.62) |
| 13 | GFTFDDYAMH | GISWNMGSIGYADSVK | VGYGGGYFTY | 5.33 ND 4.63 | 4.98 | 1 of 9 (3.63) |
| 14 | GFTFDAYRMH | GISWNSGSIGYADSVK | VGRGGHYFDY | ND 4.66 ND | 4.66 | 1 of 9 (3.34) |
| 15 | GFTFDDYAMH | GIVWNSGSIGYARSGK | VGRGGGYFDY | ND ND 3.60 | 3.60 | 1 of 9 (3.43) |
| 16 | GDTFDDYAMH | GISWNSGSIGYADSVK | VGRGGGYFDY | ND ND ND | ND | 0 of 9 |
| 17 | GFTFDWYAMV | GISWNSGSIGYADSVK | VGEGGGYFDY | ND 3.44 ND | 3.44 | 4 of 9 (4.25) |
| 18 | GFTFDDYAMH | GISWNSGSIGYADSVA | VGAGMGYFDY | 4.27 ND 4.09 | 4.18 | 5 of 9 (5.07) |
| 19 | QFTFDDYAMH | GIRWNSGSIGYADSVK | VGRGGGYFIY | 4.91 ND ND | 4.91 | 5 of 9 (5.16) |
| 20 | KFTFDDYAMH | GISWNCGSIGYADSVK | VGRGGGYFDY | 2.85 3.43 2.98 | 3.09 | 1 of 9 (3.52) |
| 21 | GFTFCDYAMH | GISWNPSSIGYADSVK | VGRGGGYFDY | 2.26 2.46 2.40 | 2.37 | 1 of 9 (3.51) |
| 22 | EFTFEDYAMH | GISWNSGSIGYADSVK | VGRGGGIFDY | ND ND ND | ND | 0 of 9 |
| 23 | GFTFDDYAGH | GISWNSGPIGDADSVK | VGRGGGYFDY | ND ND ND | ND | 0 of 9 |
| 24 | GFTQDDHAMH | GISWNSGSIGEADSVK | VGRGGGYFDY | 4.98 5.17 ND | 5.08 | 1 of 9 (5.21) |
| 25 | GFTSDDYAMH | GISWNSGSNGYADSVK | VGRGGAYFDY | 4.69 ND ND | 4.69 | 3 of 9 (4.71) |
| 26 | CFTFDDYAMH | GISWNSGSYGYADSVK | VGRGGGYFDP | 1.20 2.09 1.81 | 1.70 | 0 of 9 |
| 27 | GFTFDDRGMH | GISWNSGSIGYADSVK | VGRGGGYFDP | 3.91 5.14 4.70 | 4.58 | 6 of 9 (4.80) |
| 28 | GFTFDDDAMH | EISWNSGSHGYADSVK | VGRGGGYFDY | ND ND ND | ND | 0 of 9 |
| 29 | GFTIDDYAMH | GISWNSGSTGYADSVK | VGRKGGYFDY | ND ND 4.16 | 4.16 | 1 of 9 (4.67) |
| 30 | RFTFDDYAMH | GISWNSGSIGYADSVL | VGRGGGWFDY | ND 3.78 ND | 3.78 | 1 of 9 (4.37) |
| 31 | GFNFDDYAMH | GIYWNSGSIGYADHVK | VGRGGGYFDY | ND 5.20 ND | 5.20 | 5 of 9 (4.69) |
| 32 | GFTMDDYVMH | GISWNSGSVGYADSVK | VGRGGGYFDY | 2.63 3.11 2.24 | 2.66 | 1 of 9 (4.24) |
| 33 | GFTFDDYAQA | GISWNSGSIGYADSVK | VGRTGGYFDY | ND 5.54 ND | 5.54 | 2 of 9 (4.09) |
| 34 | GFTFDDYAMN | GISWNSGSIGYADSVK | VGRTGKYFDY | 4.56 5.36 5.89 | 5.27 | 5 of 9 (5.26) |
| 35 | GETFDDYAMH | GTSWNSGSYGYADSVK | VGRGGGYFDY | ND ND ND | ND | 0 of 9 |
| 36 | GFTFDDYAMH | GIFWNSGSIGYADSVK | GGHGGGYFDY | 5.30 ND ND | 5.30 | 1 of 9 (4.80) |
| 37 | GFSFDDYAMH | GITWNSGSIGYADSVK | VGRGGGYFDY | ND ND ND | ND | 1 of 9 (4.40) |
| 38 | GFTFDDYAMH | GISWNSGVIGYAASVK | VGRGGGYFSY | 2.94 2.95 3.71 | 3.20 | 3 of 9 (3.61) |
| 39 | GFQFDDYAMH | GHSWNSGSIGYADSVK | GGRGGGYFDY | 4.43 5.15 5.18 | 4.92 | 5 of 9 (4.50) |
| 40 | GFTCDDYAMH | GISWNSGSIGYADSVY | VGRGGPYFDY | ND ND ND | ND | 0 of 9 |
| 41 | GFTFDDYAMH | LISWNSGSYGYADSVK | VGRGGGDFDY | ND ND ND | ND | 1 of 9 (3.13) |
| 42 | GFTVDDYAPH | GISWNSGSIGYAESVK | VGRGGGYFDY | 3.68 ND ND | 3.68 | 5 of 9 (4.23) |
| 43 | GTTFDDYAMH | FISWNSGSVGYADSVK | VGRGGGYFDY | ND ND ND | ND | 1 of 9 (2.73) |
| 44 | GFTFDDYAMH | GISWNSTSIGYADSVW | VGRGGGYFWY | ND ND 3.04 | 3.04 | 0 of 9 |
| 45 | GFTFDDYAMI | GISWNKGSIGYADSVK | VGRKGGYFDY | ND ND ND | ND | 1 of 9 (2.20) |
| 46 | GFTFVDYAMH | GISWNSGSIGYADSVK | VGVGGHYFDY | 4.40 ND ND | 4.40 | 1 of 9 (2.91) |
| 47 | GFTFDDYAMH | GISWNSGSIGYAMSVK | TKRGGGYFDY | 2.62 3.41 2.86 | 2.96 | 0 of 9 |
| 48 | GFTFDDYAMH | GISWNSGSIGYADSVK | VGRGGCYFDY | ND ND ND | ND | 0 of 9 |
| 49 | GFTFDDYAWH | VISWNSGSIGYADSVK | VGRGGCYFDY | ND ND ND | ND | 6 of 9 (3.89) |
| 50 | GFTFDDYAMH | GISWMSGSIGYADSVK | VGRGGEYFDL | 3.91 ND 4.67 | 4.29 | 2 of 9 (4.16) |
| 51 | GFNFDDYAMH | GISWNSGSIMYADSVK | VGRGGGYFIY | 3.90 ND 5.15 | 4.52 | 3 of 9 (4.79) |

Repeated from above, the 3 best binders with a signal in all replicates:

CDR-H1,CDR-H2,CDR-H3,log10 Kd (nM) by replicate,"mean, log10 nM",control signals
CFTFDDYAMH,GISWNSGSYGYADSVK,VGRGGGYFDP,1.20 2.09 1.81,1.70,0 of 9
GFTFCDYAMH,GISWNPSSIGYADSVK,VGRGGGYFDY,2.26 2.46 2.40,2.37,1 of 9 (3.51)
GFTFDDYAMH,GISWNSGSIGYADSVK,VKRGGQYFDY,2.31 2.66 2.18,2.38,0 of 9

Data: MIT Lincoln Laboratory AlphaSeq set, Engelhart et al. 2022, doi:10.1038/s41597-022-01779-4, as distributed in FLAb.